An excerpt weighted towards active compounds, which were near 0.78% of everything screened.
TCR activator: T cell receptor activation; 330,000 tested, under 10 active; Potency, µM (doses to about 9.22 µM), actives largely listed as activators; primary human leukocytes, anti-CD3, IL-2 HTRF, 48 h; AID 504894
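Readout: HTRF IL-2, Eu-cryptate/d2 antibody pair, 320nm excitation, 665nm emission. Stimulus: a-CD3 beads, no co-stimulation. Cells: primary human leukocytes. Exposure: 48 hr with compound.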
RXFP1 antagonist: RXFP1 (human) relaxin receptor antagonism; Q9HBX9; HEK293-RXFP1, relaxin-stimulated cAMP HTRF, 30 min; stronger effect = lower value; activity change, negative = inhibition, % at 57.5 µM; hit rate 0.59% among 350,000;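 active = activity change of -60% or lower, but not beyond a set lower limit; inconclusive = change between -60% and -40%, or beyond the set limit; inactive = change above -40%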
RXFP1 ag: RXFP1 (human) receptor agonism; Q9HBX9; HEK293T-RXFP1 cAMP TR-FRET, 30 min; response scale: percent of porcine relaxin response, buffer zero; Potency, µM (top dose mostly 57.5 µM), actives largely listed as activators; hit rate 0.3% among 370,000; AID 2676; note: nearly all actives have a fitted effect of over 60% in size
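Agonist response is measured as cAMP accumulation in an RXFP1-transfected HEK293T line under PDE4 inhibition. Values are scaled between buffer-only and 29 nM porcine relaxin, and EC50s come from standard Hill equation fits.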
PINK1 modulator: changes PINK1 expression | PINK1 immunofluorescence, high-content cytometry, 24 h | Potency, µM (highest dose often 76.6 µM), actives largely listed as activators | hit rate 0.2% among 410,000; active = well fitted activation curve with a large enough effect; inconclusive = small, poorly fitted or top-dose-only effect; cell line not stated here; note: nearly all actives have a fitted effect of over 65% in size
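PINK1 protein level read as immunofluorescence by microplate cytometer in a fixed, stained stable cell line after 24 h exposure to five compound concentrations, with CCCP as control.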
IL2 activator: activates IL-2 in a cell-based reporter assay; IL-2 activation reporter assay, cell-based qHTS; stimulated with anti-CD3/CD4/CD28 beads; in transgenic mouse T cells; activation, % (series mostly up to about 46 µM); hit rate 0.065% among 360,000; AID 652025; in the data active = activation above about 50%; inconclusive = mostly about 30% to 49%
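EGFP and DsRed fluorescence is measured by plate cytometry in unstimulated transgenic mouse T cells exposed to compound for 60 minutes, then stimulated 18 hours at 37 degrees C with anti-CD3/anti-CD4 beads plus anti-CD28.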
miR-21 reporter: miR-21 reporter, rising signal; HeLa miR-21 FLuc reporter, luciferase, 48 h; Potency, µM (titrated, usually from 38.3 µM); 340,000 tested, under 10 active; AID 2288; active = well fitted rising curve with a large enough effect; inconclusive = small, poorly fitted or top-dose-only effect; inactive = no such curve, though single readings can be large or run the other way;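 also: miR-21 action dims this reporter so a rising signal means less miR-21 action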
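HeLa cells stably expressing CMV-driven firefly luciferase with a downstream miR-21 binding sequence, endogenously expressing miR-21, were treated with titrations (up to about 40uM final) for 48 hours at 37 degree Celsius. Luciferase luminescence was read after lysis.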
Each line names hits and unclear results; the compound was inactive in the other large screens. Unless noted, calls come from the whole dose curve; as a rule, active = well fitted curve in the direction sought with a large enough effect; inconclusive = small, poorly fitted or top-dose-only effect, or another doubt; inactive = no such curve, though single readings can be large; an effect the other way counts as inactive or inconclusive.

CCN(CC)CCOc1ccc(C(O)(Cc2ccc(Cl)cc2)c2ccc(C)cc2)cc1 (stereo not given)	RXFP1 antagonist -91.2 (no result: TCR activator, RXFP1 ag, PINK1 modulator, IL2 activator, miR-21 reporter)
Nc1ccc2c(c1)CN1C(=O)c3ccccc3C1=N2	none (no result: TCR activator, RXFP1 ag, PINK1 modulator, IL2 activator, miR-21 reporter)
Cc1cc(S(=O)(=O)Nc2ccc(C(=O)NCC3(N4CCCCC4)CCCCC3)cc2)ccc1F	RXFP1 antagonist -76.8 (no result: miR-21 reporter)
CCC1CN(C(=O)Nc2cccc3c2CCCC3)c2cc(C)ccc2O1 (stereo not given)	RXFP1 antagonist -73.4 (no result: TCR activator, IL2 activator)
Cc1ccc2c(c1)N(C(=O)Nc1cccc3c1CCCC3)CC(C)O2 (stereo not given)	RXFP1 antagonist inconclusive (no result: TCR activator, IL2 activator)
CCOC(=O)c1ccccc1NC(=O)N1CC(C)Oc2ccc(C)cc21 (stereo not given)	RXFP1 antagonist inconclusive (no result: TCR activator, IL2 activator)
CCOc1ccccc1NC(=O)N1CC(C)Oc2ccc(Cl)cc21 (stereo not given)	RXFP1 antagonist -82.9 (no result: TCR activator, IL2 activator)
CCc1ccc(NC(=O)N2CC(C)Oc3ccc(C)cc32)cc1 (stereo not given)	RXFP1 antagonist -62.3 (no result: TCR activator, IL2 activator)
COc1ccc(C(NC(C)=O)c2ccc3cccnc3c2O)cc1OC (stereo not given)	none (no result: TCR activator, RXFP1 antagonist, RXFP1 ag, IL2 activator, miR-21 reporter)
CCCC(=O)NC(c1ccc(Cl)cc1)c1ccc2cccnc2c1O (stereo not given)	none
CC(=O)NC(c1ccc2ccccc2c1)c1ccc2cccnc2c1O (stereo not given)	RXFP1 antagonist -69.9
CCCC(=O)NC(c1cccs1)c1cc(Cl)c2cccnc2c1O (stereo not given)	RXFP1 antagonist inconclusive, miR-21 reporter inconclusive
CCCC(=O)NC(c1ccc(Cl)cc1Cl)c1ccc2cccnc2c1O (stereo not given)	RXFP1 antagonist -61.6
CCCC(=O)NC(c1ccco1)c1cc(Cl)c2cccnc2c1O (stereo not given)	RXFP1 antagonist -66.5
Cc1csc(C(C)N(C)C(=O)c2cnn(-c3nccc(-c4cc(C)sc4C)n3)c2C)n1 (stereo not given)	none (no result: TCR activator, RXFP1 antagonist, RXFP1 ag, IL2 activator, miR-21 reporter)
CCN(Cc1ccncc1)Cc1ccc2c(c1)CN(C(=O)c1cccc(-n3nc(C)cc3C)c1)CCO2	none (no result: TCR activator, RXFP1 antagonist, RXFP1 ag, IL2 activator, miR-21 reporter)
